Assay type: physicochemical
Conditions: albumin in PBS, as protein concentration increases, FIG. 6
Protocol: Before describing Examples, an ejection amount when a solution containing a protein alone is ejected in accordance with the thermal inkjet system will be shown in order to facilitate the understanding why it is difficult to eject a protein solution. A solution of albumin in PBS was prepared as the protein solution in various concentrations. Each of the solutions was ejected by a liquid ejection apparatus, which was modified from a bubble-jet printer (trade name: PIXUS 950i manufactured by Canon Inc.) so as to collect the solution. The ejection amount (the amount of a single liquid droplet) of each albumin solution is indicated based on that of pure water (ejected in the same manner) being 100%.
Solutions containing insulin in a concentration of 1.0 mg/mL with and without an additive(s) were ejected in accordance with the thermal inkjet system. The ejection amount of a solution and its reproducibility were evaluated in the cases where an additive was added and not added to the solution.
Evaluation was performed by using • a solution of 1.0 mg/mL insulin containing 1.0 mg/mL proline and 1.0 mg/mL TWEEN 80 (Ins/Pro/Tw); • a solution of 1.0 mg/mL insulin containing 1.0 mg/mL proline (Ins/Pro); • a solution of 1.0 mg/mL insulin containing 1.0 mg/mL TWEEN 80 (Ins/Tw); and • a solution of 1.0 mg/mL insulin alone. […]

albumin: solution of albumin in PBS prepared in various concentrations (Reference Example 1)
ejection amount (single liquid droplet) relative to pure water (100%): gradually reduces toward zero

Reference: patent publication US8833363B2, “Ejection liquid, ejection method, method for forming liquid droplets, liquid ejection cartridge and ejection apparatus” (Canon Kabushiki Kaisha, priority 2004, dated 2014)
